Measured affinities in a library of Ab-95 light chain variants

From the AlphaSeq antibody data of Engelhart et al. 2022 (doi:10.1038/s41597-022-01779-4), copy in the FLAb collection.

All variants were tested on one target, the spike HR2 peptide PDVDLGDISGINAS (SARS-CoV-2).

The variants keep the heavy chain, the linker and the frameworks of Ab-95 (scFv order VH, a 15-residue (Gly4Ser)3 linker, VL).
VH: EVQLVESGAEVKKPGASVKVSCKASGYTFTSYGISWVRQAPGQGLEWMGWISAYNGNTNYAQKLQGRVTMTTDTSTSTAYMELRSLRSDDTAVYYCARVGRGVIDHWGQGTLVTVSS
VL: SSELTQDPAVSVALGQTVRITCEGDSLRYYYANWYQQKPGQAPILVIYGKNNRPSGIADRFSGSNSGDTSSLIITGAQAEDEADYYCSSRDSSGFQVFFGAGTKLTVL

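The parent was found by panning a naive human phage display library on the peptide. AAYL52 was designed without a model: most single CDR substitutions and a random sample of double and triple ones. The scFvs were displayed on barcoded MATa yeast, the peptide on MATalpha yeast. Mating (16 h, 30 °C) was followed by selection of diploids and sequencing of their barcodes. A regression on co-assayed BCL2-family reference pairs converts the normalised counts of each replicate to an apparent Kd. Mating was done three times.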

Changes read parent residue, position, new residue, counted from the first residue of the VL shown.
Every variant below is changed at Y30 of the VL (sequential numbering).
Values are log10 of the apparent Kd in nM; lower means stronger binding.
Averages over replicates are reported, and they cover detected replicates only.
"nd" means that the variant was in the library but no mating with the target was seen in any replicate; the authors take this as a sign of poor binding, and no number exists.
Order: sorted from the lowest average up, undetected variants last.
In this assay the parent's reference entry averaged 2.31; its copy inside this library read 2.25.

* Y30N/P54E/S55Q -> 0.82 (3 of 3 replicates)
* Y29G/Y30N/Q96E -> 0.92 (3 of 3 replicates)
* Y30R/K50T -> 1.28 (3 of 3 replicates)
* R28Q/Y30H -> 1.32 (3 of 3 replicates)
* E23F/Y30D/S55E -> 1.45 (3 of 3 replicates)
* Y30N/N52S/F95L -> 1.46 (3 of 3 replicates)
* Y30V/Q96D/V97F -> 1.65 (3 of 3 replicates)
* Y29A/Y30I -> 1.82 (3 of 3 replicates)
* Y30Q/D91P/F95A -> 1.83 (3 of 3 replicates)
* Y29G/Y30C/P54A -> 1.86 (3 of 3 replicates)
* G24T/Y30L/Y31E -> 1.91 (3 of 3 replicates)
* Y30A/N33M/S92E -> 1.92 (3 of 3 replicates)
* R28M/Y30G/F95L -> 1.98 (3 of 3 replicates)
* Y30P/K50M/S89F -> 2.24 (3 of 3 replicates)
* L27F/Y30L/N33V -> 2.38 (3 of 3 replicates)
* E23F/Y30R/G94V -> 2.45 (3 of 3 replicates)
* L27E/Y30E/Q96P -> 2.49 (3 of 3 replicates)
* Y30M/S55Q/S93H -> 2.52 (3 of 3 replicates)
* Y30R/P54Q/R90C -> 2.62 (3 of 3 replicates)
* Y29P/Y30D/Q96M -> 2.68 (3 of 3 replicates)
* Y30F/N33G/P54M -> 2.68 (3 of 3 replicates)
* Y30K/K50L/N51K -> 2.73 (3 of 3 replicates)
* Y29C/Y30F/S55P -> 2.81 (3 of 3 replicates)
* Y30S/K50G/S88F -> 2.88 (3 of 3 replicates)
* Y30A/R53L/S88Y -> 2.88 (3 of 3 replicates)
* Y30W/S93H/F98H -> 3.01 (3 of 3 replicates)
* Y30W/S92C/G94S -> 3.42 (3 of 3 replicates)
* L27H/Y30K/N33M -> 3.46 (1 of 3 replicates)
* Y30N/Y31C/N33I -> 3.51 (1 of 3 replicates)
* L27H/Y30D/G94A -> 3.52 (1 of 3 replicates)
* Y30A/N33A/V97N -> 3.54 (3 of 3 replicates)
* Y30T/D91M/F98N -> 3.58 (1 of 3 replicates)
* E23H/Y30W/R53L -> 3.59 (2 of 3 replicates)
* L27A/Y30M/F98L -> 3.64 (3 of 3 replicates)
* Y30M/S55W/V97P -> 3.67 (3 of 3 replicates)
* L27W/Y30D/G49A -> 3.73 (3 of 3 replicates)
* Y30I/G49T/S92P -> 3.93 (1 of 3 replicates)
* Y30T/S55L/S88P -> 3.96 (2 of 3 replicates)
* L27H/Y30T/G94I -> 4.18 (2 of 3 replicates)
* Y30F/G49W/R53S -> 4.22 (1 of 3 replicates)
* Y30D/N33F/S92D -> 4.31 (1 of 3 replicates)
* L27Y/Y30F/S92H -> 4.33 (1 of 3 replicates)
* Y30T/G49F/K50P -> 4.34 (2 of 3 replicates)
* Y30P/N33T/G49K -> 4.66 (1 of 3 replicates)
* E23F/Y30F/G49R -> 4.88 (1 of 3 replicates)
* Y30F/Y31T/S55R -> nd (0 of 3 replicates)
* Y30P/G49P/F95H -> nd (0 of 3 replicates)
* G24E/Y30Q/S88L -> nd (0 of 3 replicates)

As a blank, each scFv also met three strains without target: over library AAYL52, 28% of these pairings were detected, typically at 3.91 and seldom below 2.90.